Laboratory results taken from PubChem BioAssay AID1347088 (National Center for Advancing Translational Sciences (NCATS), 2019).
This is a selection; strong and weak results do not stand in their true shares. Results filed as inconclusive are left out. Active and inactive are the calls of the source. Calls come from the whole dose curve.

Assay: qHTS for Inhibitors of the Functional Ribonucleoprotein Complex (vRNP) of Lymphocytic Choriomeningitis Arenaviruses (LCMV): Viability assay - Alamar blue signal for LCMV Confirmatory Screen
Conditions: LCMV vRNP confirmatory screen cells; at 110 µM (top of the series)

**Q.** For `CCC(=O)N(c1ccccc1)C1(COC)CCN(CCc2cccs2)CC1`, which viability change, negative = toxic is on record?
**A.** inactive: -51.5%
